Assay results: patent US20030104974A1, “Dual inhibitorsof PDE 7 and PDE 4” (priority 2001, published 2003)

Amino acid sequences for entries named in this document (tags omitted). A change or cut given only in a name is not applied to a line headed by its entry.
UniProt Q13946: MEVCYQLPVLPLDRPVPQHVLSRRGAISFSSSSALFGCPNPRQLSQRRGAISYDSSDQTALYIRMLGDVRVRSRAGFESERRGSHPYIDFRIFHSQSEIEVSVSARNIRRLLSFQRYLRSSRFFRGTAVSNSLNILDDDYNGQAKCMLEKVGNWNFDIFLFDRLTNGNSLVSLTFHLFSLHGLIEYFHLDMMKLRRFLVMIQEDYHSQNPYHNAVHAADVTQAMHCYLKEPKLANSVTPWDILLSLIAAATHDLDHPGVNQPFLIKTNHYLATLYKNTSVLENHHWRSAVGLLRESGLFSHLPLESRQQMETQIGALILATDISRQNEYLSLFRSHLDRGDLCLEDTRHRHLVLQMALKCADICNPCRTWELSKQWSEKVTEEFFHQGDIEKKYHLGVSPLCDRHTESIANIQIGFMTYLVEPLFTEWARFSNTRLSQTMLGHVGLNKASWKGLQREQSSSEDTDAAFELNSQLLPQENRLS

Biological target: T1, PDE7 (Homo sapiens, UniProt Q13946)
T1 construct: endogenous in cells; host or cells: Hut78 cells (crude lysate)
Assay: SPA assay for cAMP, PDE7 in Hut78 cell lysate treated with Zardaverine
Assay type: biochemical
Conditions: ratio of PDE4 and PDE7 IC50
Procedure: Hut78 cells were grown in 10% FCS in Iscoves Modified Dulbecco's Medium (Gibco BRL-Life Technologies, Grand Island, N.Y.) with antibiotics. Cells were centrifuged and resuspended in four volumes of [40 mM Tris (pH 7.5)/50 μM EDTA/200 μM PMSF with a cocktail of Protease inhibitors (Boehringher Mannheim, Indianapolis, Ind.)] at 4 C. Cells were homogenized using a Virtis homogenizer, and the lysate was centrifuged twice for 15 min at 15,000×g. Glycerol was added to a final volume of 50% for storage at −20C.
Inhibition of PDE activity in Hut78 cell lysate was determined using an SPA specific for cAMP (Amersham Pharmacia Biotech, Buckinghamshire, UK) according to the manufacturers instructions with minor modifications. Enzyme assays were performed at room temperature in the presence of 50 mM Tris HCl, pH7.5, containing 8.3 mM MgCl2, 1.7 mM EGTA and 0.5 mg/mL BSA. Each assay was performed in a 100 μL reaction volume in 96 well microtitre plates containing the above buffer, 0.3 ul of Hut78 cell lysate treated with 2 uM Zardaverine to inhibit PDE3 and PDE4, 0.05 uCi of [5′,8-3H] Adenosine 3′,5′-cyclic phosphate as an ammonium salt for 20 min. The reaction was terminated by the addition of 50 μl PDE SPA beads (1 mg) water with 10 mM cold cAMP (Sigma, St. Louis Mo.). […]

Compound: CCOC(=O)c1sc(Nc2nc(N3CCC(O)CC3)cc(N3CCC(O)CC3)n2)nc1C [Example F2, 2-[4,6-Bis-(4-hydroxy-piperidin-1-yl)-pyrimidin-2-ylamino]-4-methyl-thiazole-5-carboxylic Acid Ethyl Ester]
- selective for PDE7 over PDE4: greater than 50 fold
